According to US9125930B2, “EGFR aptamer inhibitor for use in therapy and diagnosis” (CONSIGLIO NAZIONALE DELLE RICERCHE, priority 2010, dated 2015):

Tested on: A549 cells
Test: Cell viability assay, A549 cells
Assay type: cell-based, human
Conditions: dose-dependent experiments, 0.05-1 μM
Description: Cell viability was assessed with CellTiter 96® AQueous One Solution Cell Proliferation Assay (Promega, Madison, Wis.) according to according to the supplier's instructions. […] The optical density (OD) was measured using a Multilabel Counter (Bio-Rad) at a wavelength of 490 nm and cell viability was calculated by the following formula: Cell viability (%)=(OD treated cells/OD control cells)×100%. FACS Analysis

Substance: cetuximab [reference compound]
- sensitivity of A549 cell viability: resistant
